Measured affinities in a library of Ab-14 light chain variants

From the AlphaSeq antibody data of Li et al. 2023 (doi:10.1038/s41467-023-39022-2), copy in the FLAb collection.

Target peptide (SARS-CoV-2 spike, HR2 region): PDVDLGDISGINAS

Each scFv is VH, a (GGGGS)3 linker, VL, as in the parent Ab-14, and differs from it in the CDRs of the light chain only.
VH: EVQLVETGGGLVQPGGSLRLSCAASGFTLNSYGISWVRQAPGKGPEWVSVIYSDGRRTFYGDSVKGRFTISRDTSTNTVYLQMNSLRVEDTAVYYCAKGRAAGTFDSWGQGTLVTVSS
VL: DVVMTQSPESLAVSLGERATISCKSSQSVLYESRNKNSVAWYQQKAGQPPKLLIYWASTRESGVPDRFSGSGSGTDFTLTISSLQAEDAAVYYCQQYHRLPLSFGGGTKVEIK

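Phage display of a naive human antibody library on the peptide gave the parent. This is the validation round: designs drawn from the data on random variants, tested in the same kind of assay. Group labels follow the data file (Rand: our label for a block that the file lists under HC and that is probably the random mutants of the ten best first-round binders; En: ensemble of fine-tuned language models; GP: Gaussian process model; HC: hill climbing; Gen: genetic algorithm; Gibbs: Gibbs sampling; a sequence that several methods proposed may carry one label only). The scFvs were displayed on barcoded MATa yeast, the peptide on MATalpha yeast. Binding brings cells together so that they mate, and sequencing counts the barcode pairs among the diploids. Read counts were normalised to the haploid input and turned into Kd by a linear fit to BCL2-family pairs of known affinity, for each replicate. Each pool was mated in six replicate cultures.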

Each variant is given by its three light chain CDRs, as the data file delimits them; those of the parent are KSSQSVLYESRNKNSVA, WASTRES, QQYHRLPLS. This list holds designs with more than six substitutions. The read-out is the apparent dissociation constant on a log10 scale (nM): the lower, the stronger. Averages over replicates are reported, and they cover detected replicates only. "no signal" marks a missing value. The strain was present, yet no cells mated with the target were sequenced in any replicate, which points to weak or no binding. The list is sorted by this average, lowest first, undetected variants last.

KLRQQTLYETRNKNSVA, NASTREE, QQYHRLPLS [GP_HC]: -0.35 (6 of 6 replicates; controls 1 of 18).
KVSGSQLYQSRNSNAVA, NASTRMS, QQYHRLPLS [GP_Gibbs]: -0.24 (6 of 6 replicates; controls 1 of 18).
TLTQSVGMESHNKNSVA, DLDTRGS, QQYHRLPLS [En_HC]: -0.06 (6 of 6 replicates; controls 0 of 18).
KVSIEDDGGDRNKNSVA, HASLRES, QQYHRLPLS [GP_Gibbs]: -0.04 (6 of 6 replicates; controls 2 of 18).
KVSMLHDYESRNKNSVA, QASTRES, QDYHRLPLS [GP_Gibbs]: 0.09 (6 of 6 replicates; controls 1 of 18).
QIYQAMHTLSQMKNNVA, DVNERGQ, QQYFRLPLS [En_Gen]: 0.10 (6 of 6 replicates; controls 0 of 18).
TISQSTQQESHNKNSVA, DLSVRGS, QQYHRLPLS [En_HC]: 0.11 (6 of 6 replicates; controls 1 of 18).
KLRAVTGTEKVLGNNVA, EMETRER, QQYNRLPLS [En_Gen]: 0.15 (6 of 6 replicates; controls 0 of 18).
QLDLRMNEQGMQPSAIA, GATNRFT, QQYQKLPLS [En_Gibbs]: 0.28 (6 of 6 replicates; controls 1 of 18).
KFGQMVLTGSYVKNSVA, QSSTREN, QQYHRLPLS [En_HC]: 0.28 (6 of 6 replicates; controls 1 of 18).
KLPAWQGYESRNKASVA, QASTRES, QQYHRLPLS [GP_Gibbs]: 0.28 (6 of 6 replicates; controls 2 of 18).
NLSGITAHESVKEDNIA, ERSTREQ, QQYNRLPLS [En_Gen]: 0.33 (6 of 6 replicates; controls 1 of 18).
KLSMGHGYGSRNKNSVA, QASQREE, QQYHRLPLS [GP_Gibbs]: 0.37 (6 of 6 replicates; controls 0 of 18).
KLYQMMGYLSRNKNSIA, DMSRREN, QQYHRLPLS [En_HC]: 0.44 (6 of 6 replicates; controls 1 of 18).
KLTMITGLEKVSKSNVA, EMETREE, QQYNRLPLS [En_Gen]: 0.45 (6 of 6 replicates; controls 0 of 18).
KVSPSVQYEARNFNSVA, EASTREQ, QQYHRLPLS [GP_Gibbs]: 0.51 (6 of 6 replicates; controls 0 of 18).
KVSQGFLYEERQKNSVA, NASQRES, QQYHRLPLS [GP_Gibbs]: 0.57 (6 of 6 replicates; controls 0 of 18).
KQSQSVPQGERNKNSVA, NASYRLS, QQYHRLPLS [GP_Gibbs]: 0.58 (6 of 6 replicates; controls 1 of 18).
TISQVMNSLTRHGNNVA, DLAERED, QQYFRLPLS [En_Gen]: 0.67 (6 of 6 replicates; controls 1 of 18).
KLVNFMNRGTHHTSNIA, DAQNRTD, QQYARLPLA [En_Gen]: 0.73 (6 of 6 replicates; controls 0 of 18).
VLQQLGLYEPRNKNSVA, SASTRLS, QQYHRLPLS [GP_Gibbs]: 0.81 (6 of 6 replicates; controls 2 of 18).
MFSQSVMTGSFYRNSVA, QTSTRES, QQYDRLPLS [En_HC]: 0.85 (6 of 6 replicates; controls 0 of 18).
KSSQSVMGEDWNKNSVA, HASQRES, QQYHRLPLM [GP_Gibbs]: 0.87 (6 of 6 replicates; controls 4 of 18).
KVSEFMRGLMQRKDSIA, DNVTRQN, QQYDRLPLS [En_Gen]: 0.92 (6 of 6 replicates; controls 1 of 18).
MISQLNNMGQFAINSVA, QASLRNE, QQYDRLPLI [En_Gen]: 0.94 (6 of 6 replicates; controls 1 of 18).
VMQMDNDRMNDATKAIA, DVTMREK, QQYNRLPLM [En_Gibbs]: 0.95 (6 of 6 replicates; controls 1 of 18).
NISFEMVSPHNHSNSVA, STSKRCS, QQYFTLPLS [En_Gibbs]: 0.99 (6 of 6 replicates; controls 0 of 18).
HMSALTLMGSRARNSVA, QMTTREN, QQYDRLPLA [En_Gen]: 1.02 (6 of 6 replicates; controls 1 of 18).
TLYGLSNSMSINKNNVA, EMSTREP, QQYDRLPLV [En_Gen]: 1.02 (6 of 6 replicates; controls 0 of 18).
TLVQSVMGSSRTKNSVA, NAETRED, QHYHRLPLS [En_HC]: 1.43 (5 of 6 replicates; controls 0 of 18).
KIGHTLNTLYEKANNVA, DLVAREN, QQYHRLPLS [En_Gen]: 1.43 (6 of 6 replicates; controls 2 of 18).
QLSESAHFESRKKNSVA, ENSTRES, QQYDHLPLS [En_HC]: 1.45 (6 of 6 replicates; controls 6 of 18).
QFSNVNMQGLAQWANVA, EASYAFE, QQYARLPLQ [En_Gibbs]: 1.48 (5 of 6 replicates; controls 0 of 18).
MFSQLFMYGSRNYNSVA, QAETRES, QQYHRLPLI [En_HC]: 1.56 (5 of 6 replicates; controls 1 of 18).
IVSQLMLIGMHAKNSIA, EASTRIN, QQYERLPLF [En_Gen]: 1.67 (3 of 6 replicates; controls 0 of 18).
HMSALTLQGMRMRNSVA, QMTTREN, QQYDHLPLA [En_Gen]: 1.76 (5 of 6 replicates; controls 0 of 18).
KLSATYRYESQNKNSIA, EMSTREK, QCYHRLPLS [En_HC]: 1.81 (6 of 6 replicates; controls 1 of 18).
KVSDMMAFLSRNRNSVA, DNSTRGS, QQYHRLPLS [En_HC]: 1.87 (5 of 6 replicates; controls 0 of 18).
RIQMQFTWPGNARQNVA, EIQKAID, QQYAHLPLS [En_Gibbs]: 1.94 (2 of 6 replicates; controls 0 of 18).
IVSQLMLWGYLAKNSIA, EAEMRLN, QQYERLPLF [En_Gen]: 1.94 (1 of 6 replicates; controls 0 of 18).
KWSQSVPMGDRNKNSVA, SAHKRMS, QQYHRLPLS [GP_Gibbs]: 2.00 (6 of 6 replicates; controls 2 of 18).
HMSMITLMGSRNRNSVA, QMTTREN, QQYDHLPLA [En_Gen]: 2.18 (6 of 6 replicates; controls 0 of 18).
TISGMANYESTNKNSVA, ELTTRGK, QQYERLPLS [En_HC]: 2.21 (6 of 6 replicates; controls 0 of 18).
MISQLMNLGQFAINSVA, QASIRNE, QQYDRLPLT [En_Gen]: 2.24 (2 of 6 replicates; controls 0 of 18).
RITEQYFEYMHNINNVA, EAECKQY, QQYAHLPLL [En_Gibbs]: 2.47 (3 of 6 replicates; controls 0 of 18).
KISQMVRVGSTHNNSIA, EEATRAK, QQYHRLPLA [En_Gen]: 2.86 (4 of 6 replicates; controls 1 of 18).
MISQVMNTLTREGNNVA, DLAERES, QQYFRLPLS [En_Gen]: no signal (0 of 6 replicates; controls 0 of 18).
SSMQSVLYESRNKNSTA, HESTRED, QKYHRPPLS [Rand]: no signal (0 of 6 replicates; controls 0 of 18).
NMEVSLVDAKNRDSSIA, DEELHTI, QQYNRLPFS [En_Gibbs]: no signal (0 of 6 replicates; controls 0 of 18).

The first 5 entries again:

CDR-L1	CDR-L2	CDR-L3	group	mean log10 Kd (nM)	detected	empty controls
KLRQQTLYETRNKNSVA	NASTREE	QQYHRLPLS	GP_HC	-0.35	6 of 6	1 of 18
KVSGSQLYQSRNSNAVA	NASTRMS	QQYHRLPLS	GP_Gibbs	-0.24	6 of 6	1 of 18
TLTQSVGMESHNKNSVA	DLDTRGS	QQYHRLPLS	En_HC	-0.06	6 of 6	0 of 18
KVSIEDDGGDRNKNSVA	HASLRES	QQYHRLPLS	GP_Gibbs	-0.04	6 of 6	2 of 18
KVSMLHDYESRNKNSVA	QASTRES	QDYHRLPLS	GP_Gibbs	0.09	6 of 6	1 of 18

The authors' rule: three or more of the six replicates give a measured affinity, fewer mean a poor binder. Background: pairings of all light chain designs with three empty control strains gave a value in 4% of cases (median 2.64, 5th percentile 1.59). Values in that range, when seen in few replicates, are hard to tell from nonspecific mating. For each scFv, signals with the empty controls are counted beside the result. A sequence measured in both rounds can read differently, since the two assays cover different ranges.